According to patent US10905744B2, “Pharmaceutical formulations for the oral delivery of peptide drugs” (Cyprumed GmbH, priority 2015, dated 2021):

Assay: Compatibility of absorption enhancers with trace elements: dissolution in aqueous medium, visual examination (Example 1)
Assay type: physicochemical
Protocol: Solid dry powder mixtures of desmopressin acetate, zinc sulfate or iron(III) chloride, and different absorption enhancers were prepared and dissolved in 2 ml aqua purificata.

Dissolution in aqueous medium (2 ml) (desmopressin acetate + FeCl3 5 mg/ml + absorption enhancer 10 mg/ml in 2 ml aqua purificata): Clear solution
Dissolution in aqueous medium (2 ml) (desmopressin acetate + ZnSO4 5 mg/ml + absorption enhancer 10 mg/ml in 2 ml aqua purificata): Clear solution
Substance: Sucrose laurate
